Test results taken from ChEMBL document CHEMBL1140401, “Synthesis and pharmacological evaluation of Tic-hydantoin derivatives as selective sigma1 ligands. Part 2” (Bioorg Med Chem Lett, 2005).

Test system: Sigma 2 receptor
Experiment: Inhibitory activity against opioid sigma 2 receptor in rat cerebral cortex using [3H]DTG (+300 nM (+)pentazocine) as radio ligand at pH 7.5 for 120 min at 22 degree C

O=C1[C@@H]2Cc3ccccc3CN2C(=O)N1C1CCN(Cc2ccccc2)CC1
IC50: 24 nM
